Results on 3 molecules are retold here after patent publication US10730826B2, “Ketone inhibitors of lysine gingipain” (CORTEXYME, INC., priority 2016, dated 2020).

One may read the IC50 as the concentration at which inhibition is half-maximal.

The target of the assay is lysine gingipain (Kgp) (Porphyromonas gingivalis (Bacteroides gingivalis), UniProt P72194). Briefly: biochemical. It is filed as biochemical. As to the method: The specific assay conditions were as follows. Buffer: pH=7.5, 100 mM Tris-HCl, 75 mM NaCl, 2.5 mM CaCl2), 10 mM cysteine, 1% DMSO after all additions. Protein: 0.1 nM Kgp, isolated from culture of Porphyromonas gingivalis, as described by Pike et al. (J. Biol. Chem. 1994, 269(1), 406), and Potempa and Nguyen (Current Protocols in Protein Science. 2007, 21.20.1-21.20.27). Fluorogenic substrate: 10 μM Z-His-Glu-Lys-MCA. Time=90 minutes. Temperature=37° C.
Further assays to measure the inhibitory activity of compounds of the present invention against Kgp and cathepsins B, H, K, L, and S were conducted as described in Example 66. The capacities of the compounds to inhibit the activity of cathepsins F, V, and Z were also measured.

[1] abbreviates: Table 3, read-out: IC50 (nM) Kgp.

Where two headings read alike, the source gives them in different places.

As for `NCCCC[C@H](NC(=O)C1CCCC1)C(=O)COc1c(F)ccc(F)c1F` (racemic) [1a - non-racemic], under setting [1], the 50% inhibitory concentration (IC50) is at most 0.05 nM.
On the same count and under the same terms, in the case of `NCCCCC(NC(=O)C1CCCC1)C(=O)COc1c(F)ccc(F)c1F` (racemic) [Example 3, racemic N-(7-amino-2-oxo-1-(2,3,6-trifluorophenoxy)-heptan-3-yl)cyclopentanecarboxamide] it was at most 0.05 nM.
For the molecule `NCCCC[C@@H](NC(=O)C1CCCC1)C(=O)COc1c(F)ccc(F)c1F` [Compound 21], the IC50 (IC50 (nM) Kgp, Table 4) came to 0.09 nM.
